Test results taken from US7829562B2, “Sigma ligands for neuronal regeneration and functional recovery” (M's Science Corporation, priority 2003, dated 2010).

Experiments:
[1] = test system: DA rats immunized with Rat Spinal Cord Homogenate (EAE); settings: in vivo
[2] = test system: DA rats immunized with Rat Spinal Cord Homogenate (EAE); assay: Experimental autoimmune encephalomyelitis (EAE) model of MS: clinical signs, weight, euthanasia; format: in vivo; settings: for Max. score / Min. score sick rats: EAE score 0-6; for Day onset: days after immunization
[3] = 0.3 mg/kg, day 47 post-immunization

COc1ccc(CCN2CCN(CCCc3ccccc3)CC2)cc1OC [AGY-94806, 1-(3,4-dimethoxyphenethyl)-4-(3-phenylpropyl) piperazine]
axonal damage and loss in the spinal cord [1]: Significant axonal damage and loss
demyelination and axonal loss in the spinal cord [1]: statistically significant reduction of demyelination and axonal loss
weight recovery ([2]; 0.3 mg AGY-94806 group): significantly (P<0.05) more rapid weight recovery
n Rats killed ([2]; 0.3 mg/Kg sc group): 12
n Rats with EAE ([2]; 0.3 mg/Kg sc group): 23/23
Max. score ([2]; 0.3 mg/Kg sc group): 5 (n = 2)
Min. score sick rats ([2]; 0.3 mg/Kg sc group): 3 (n = 1)
Day onset ([2]; 0.3 mg/Kg sc group): 6-11
animals that gained their motor function back at day 47 ([2]; 0.3 mg/kg): 50%
recovery of neurological score ([2]; 0.3 mg/kg, 6 days after cessation of treatment, compared to vehicle and 1 mg/kg, significant 28 days after treatment): enhanced recovery of neurological score
number of animals with a score of 1.5 ([2]; 0.3 mg/kg, day 47): 1
number of animals with a score of 2 ([2]; 0.3 mg/kg, day 47): 2
number of animals with neuroscores of 1 or less ([2]; 0.3 mg/kg, day 47): Five
rats very significantly recovered from EAE (number) [2, 3]: 8 out of the 11
rats very significantly recovered from EAE (percent) [2, 3]: 72%
weight versus vehicle-treated group ([2]; 1 mg AGY-94806 group): no statistically significant differences in weight
n Rats killed ([2]; 1.0 mg/Kg sc group): 12
n Rats with EAE ([2]; 1.0 mg/Kg sc group): 22/22
Max. score ([2]; 1.0 mg/Kg sc group): 5 (n = 2)
Min. score sick rats ([2]; 1.0 mg/Kg sc group): 3 (n = 1)
Day onset ([2]; 1.0 mg/Kg sc group): 5-10
animals that gained their motor function back at day 47 ([2]; 1 mg/kg): none
neurological deficit ([2]; 1 mg/kg sc, daily for 10 days): substantial neurological deficit
